By UniProt entry, the sequences of proteins in these tests, tags left out.
UniProt Q86WV6, whole entry R71H/G230A/H232R/R293Q: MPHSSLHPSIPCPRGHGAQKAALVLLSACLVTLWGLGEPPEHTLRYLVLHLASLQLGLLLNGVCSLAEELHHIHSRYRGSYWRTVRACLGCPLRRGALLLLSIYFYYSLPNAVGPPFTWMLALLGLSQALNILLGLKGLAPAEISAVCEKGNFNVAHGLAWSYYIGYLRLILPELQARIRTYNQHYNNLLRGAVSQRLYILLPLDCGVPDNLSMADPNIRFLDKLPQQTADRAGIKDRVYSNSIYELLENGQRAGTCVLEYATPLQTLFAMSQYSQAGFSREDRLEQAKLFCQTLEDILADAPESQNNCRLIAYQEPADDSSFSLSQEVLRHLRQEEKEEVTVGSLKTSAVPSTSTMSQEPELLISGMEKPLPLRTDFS

What follows are compounds tested against STING (Homo sapiens, UniProt Q86WV6, G230A/H232R/R293Q/R71H) (assay: cell-based). Conditions: not given.
For `CCCCCCCC(=O)N[C@H](C(=O)N[C@@H](C)C(=O)Nc1ccc(CSP2(=O)OC[C@H]3O[C@@H](n4cnc5c(N)ncnc54)[C@H](F)[C@@H]3OP(=O)(O)OC[C@H]3O[C@@H](n4cnc5c(O)ncnc54)C[C@@H]3O2)cc1)C(C)C` (stereo partly shown) [CL821], the EC50 was 230 nM. `CC(C)[C@H](NC(=O)[C@@H](CN)N1C(=O)C=CC1=O)C(=O)N[C@@H](C)C(=O)Nc1ccc(CSP2(=O)OC[C@H]3O[C@@H](n4cnc5c(N)ncnc54)[C@H](F)[C@@H]3OP(=O)(S)OC[C@H]3O[C@@H](n4cnc5c(O)ncnc54)[C@H](F)[C@@H]3O2)cc1` (stereo partly shown) [CL874] was tested, and the EC50 was 6810 nM. Compound `CCCCCCCC(=O)N[C@H](C(=O)N[C@@H](C)C(=O)Nc1ccc(CSP2(=O)OC[C@H]3O[C@@H](n4cnc5c(N)ncnc54)[C@H](F)[C@@H]3OP(=O)(S)OC[C@H]3O[C@@H](n4cnc5c(O)ncnc54)[C@H](F)[C@@H]3O2)cc1)C(C)C` (stereo partly shown) [CL840] has an EC50 of 5 nM. `CCCCCCCCCCCCCC(=O)OC(CCCCCCCCCCC)CC(=O)N[C@H](C(=O)N[C@@H](C)C(=O)Nc1ccc(CSP2(=O)OC[C@H]3O[C@@H](n4cnc5c(N)ncnc54)[C@H](F)[C@@H]3OP(=O)(O)OC[C@H]3O[C@@H](n4cnc5c(O)ncnc54)C[C@@H]3O2)cc1)C(C)C` (stereo partly shown) [CL838] showed an EC50 of 90 nM. With `CCCCCCCCCCCCCCCC(=O)N[C@H](C(=O)N[C@@H](CCCNC(N)=O)C(=O)Nc1ccc(CSP2(=O)OC[C@H]3O[C@@H](n4cnc5c(N)ncnc54)[C@H](F)[C@@H]3OP(=O)(O)OC[C@H]3O[C@@H](n4cnc5c(O)ncnc54)C[C@@H]3O2)cc1)C(C)C` (stereo partly shown) [CL848] the EC50 was 10 nM. In the case of `CCCCCCCCCCCCCCCC(=O)N[C@H](C(=O)N[C@@H](C)C(=O)Nc1ccc(CSP2(=O)OC[C@H]3O[C@@H](n4cnc5c(N)ncnc54)[C@H](F)[C@@H]3OP(=O)(O)OC[C@H]3O[C@@H](n4cnc5c(O)ncnc54)[C@H](F)[C@@H]3O2)cc1)C(C)C` (stereo partly shown) [CL849], the EC50 is reported as 120 nM. `CCCCCCCCCCCCCC(=O)OC(CCCCCCCCCCC)CC(=O)N[C@H](C(=O)N[C@@H](CCCNC(N)=O)C(=O)Nc1ccc(CSP2(=O)OC[C@H]3O[C@@H](n4cnc5c(N)ncnc54)[C@H](F)[C@@H]3OP(=O)(O)OC[C@H]3O[C@@H](n4cnc5c(O)ncnc54)[C@H](F)[C@@H]3O2)cc1)C(C)C` (stereo partly shown) [CL860] gave an EC50 of 440 nM. Work on `CCCCCCCC(=O)N[C@H](C(=O)N[C@@H](C)C(=O)Nc1ccc(CSP2(=O)OC[C@H]3O[C@@H](n4cnc5c(N)ncnc54)[C@H](F)[C@@H]3OP(=O)(O)OC[C@H]3O[C@@H](n4cnc5c(O)ncnc54)[C@H](F)[C@@H]3O2)cc1)C(C)C` (stereo partly shown) [CL841] yielded an EC50 of 190 nM. `CCCCCCCC(=O)N[C@H](C(=O)N[C@@H](C)C(=O)Nc1ccc(CSP2(=O)OC[C@H]3O[C@@H](n4cnc5c(O)ncnc54)[C@H](F)[C@@H]3OP(=O)(SCc3ccc(NC(=O)[C@H](C)NC(=O)[C@@H](NC(=O)CCCCCCC)C(C)C)cc3)OC[C@H]3O[C@@H](n4cnc5c(N)ncnc54)[C@H](F)[C@@H]3O2)cc1)C(C)C` (stereo partly shown) [CL842] was tested, and the EC50 was 6 nM. Work on `CCCCCCCCCCCCCCCC(=O)N[C@H](C(=O)N[C@@H](C)C(=O)Nc1ccc(CSP2(=O)OC[C@H]3O[C@@H](n4cnc5c(N)ncnc54)[C@H](F)[C@@H]3OP(=O)(S)OC[C@H]3O[C@@H](n4cnc5c(O)ncnc54)[C@H](F)[C@@H]3O2)cc1)C(C)C` (stereo partly shown) [CL863] yielded an EC50 of 40 nM. In the case of `CCCCCCCCCCCCCCCC(=O)N[C@H](C(=O)N[C@@H](CCCNC(N)=O)C(=O)Nc1ccc(CSP2(=O)OC[C@H]3O[C@@H](n4cnc5c(N)ncnc54)[C@H](F)[C@@H]3OP(=O)(S)OC[C@H]3O[C@@H](n4cnc5c(O)ncnc54)[C@H](F)[C@@H]3O2)cc1)C(C)C` (stereo partly shown) [CL853], the EC50 is reported as 20 nM. In the case of `CCCCCCCCCCCCCC(=O)OC(CCCCCCCCCCC)CC(=O)N[C@H](C(=O)N[C@@H](CCCNC(N)=O)C(=O)Nc1ccc(CSP2(=O)OC[C@H]3O[C@@H](n4cnc5c(N)ncnc54)[C@H](F)[C@@H]3OP(=O)(S)OC[C@H]3O[C@@H](n4cnc5c(O)ncnc54)[C@H](F)[C@@H]3O2)cc1)C(C)C` (stereo partly shown) [CL861], the EC50 is reported as 270 nM.

What follows are compounds tested on Type I IFNs (assay: Whole-blood assay, type I IFN induction (HEK-Blue IFN-α/β-KO-STING readout)). Conditions: read-out: EC50 (μM) IFN in WBA.
Type: cell-based, human
With `CCCCCCCCCCCCCCCC(=O)N[C@H](C(=O)N[C@@H](C)C(=O)Nc1ccc(CSP2(=O)OC[C@H]3O[C@@H](n4cnc5c(N)ncnc54)[C@H](F)[C@@H]3OP(=O)(O)OC[C@H]3O[C@@H](n4cnc5c(O)ncnc54)[C@H](F)[C@@H]3O2)cc1)C(C)C` (stereo partly shown) [CL849] the EC50 was 0.12 µM.

Source: patent US11730817B2, “Pro-cyclic dinucleotides and pro-cyclic dinucleotide conjugates for cytokine induction” (INVIVOGEN, priority 2017, dated 2023)
